Assay results reported in US20110039779A1 (published 2011).

By UniProt entry, the sequences of proteins in these tests, tags left out. Residues count along the entry.
UniProt P08069, 31-1367 limits assumed: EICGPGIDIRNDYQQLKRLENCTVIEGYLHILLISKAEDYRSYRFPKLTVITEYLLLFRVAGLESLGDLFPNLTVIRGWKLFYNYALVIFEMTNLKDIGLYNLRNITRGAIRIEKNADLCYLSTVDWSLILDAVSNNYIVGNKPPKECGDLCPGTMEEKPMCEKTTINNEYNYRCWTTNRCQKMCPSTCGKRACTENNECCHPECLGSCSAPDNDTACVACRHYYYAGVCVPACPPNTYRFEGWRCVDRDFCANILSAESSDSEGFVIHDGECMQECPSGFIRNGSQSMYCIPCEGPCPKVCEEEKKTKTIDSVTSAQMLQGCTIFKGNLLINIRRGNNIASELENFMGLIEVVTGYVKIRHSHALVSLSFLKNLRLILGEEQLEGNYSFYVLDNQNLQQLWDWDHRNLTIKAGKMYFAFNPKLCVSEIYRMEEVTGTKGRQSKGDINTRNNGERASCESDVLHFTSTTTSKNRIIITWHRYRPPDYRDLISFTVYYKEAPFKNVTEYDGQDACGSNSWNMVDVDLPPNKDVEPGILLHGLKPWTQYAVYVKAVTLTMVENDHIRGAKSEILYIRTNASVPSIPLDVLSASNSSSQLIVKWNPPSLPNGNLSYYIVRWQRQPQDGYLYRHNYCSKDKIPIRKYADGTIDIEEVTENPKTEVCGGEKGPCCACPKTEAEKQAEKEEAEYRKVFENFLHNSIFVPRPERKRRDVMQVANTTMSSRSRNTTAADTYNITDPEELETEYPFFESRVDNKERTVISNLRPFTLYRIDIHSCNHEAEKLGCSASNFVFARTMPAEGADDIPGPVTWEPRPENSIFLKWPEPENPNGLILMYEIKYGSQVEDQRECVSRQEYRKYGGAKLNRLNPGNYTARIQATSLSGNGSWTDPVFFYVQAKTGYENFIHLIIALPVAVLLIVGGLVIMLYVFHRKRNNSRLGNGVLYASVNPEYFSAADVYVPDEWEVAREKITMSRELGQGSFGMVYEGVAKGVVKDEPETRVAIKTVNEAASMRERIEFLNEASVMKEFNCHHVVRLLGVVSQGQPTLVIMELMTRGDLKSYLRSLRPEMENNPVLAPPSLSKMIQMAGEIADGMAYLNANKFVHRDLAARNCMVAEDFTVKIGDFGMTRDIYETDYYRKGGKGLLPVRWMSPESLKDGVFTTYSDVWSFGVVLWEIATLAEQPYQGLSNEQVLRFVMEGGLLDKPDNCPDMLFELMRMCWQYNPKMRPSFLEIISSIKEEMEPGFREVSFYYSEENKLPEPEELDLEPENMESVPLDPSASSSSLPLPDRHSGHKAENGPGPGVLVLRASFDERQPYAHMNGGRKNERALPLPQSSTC

Target: T1, human insulin-like growth factor-1 receptor (HIGF-1R) (human, UniProt P08069 31-1367)
T1 construct: Detergent-solubilised receptor purified on WGA-agarose; also called HIGFIR
Assay: 125I-IGF-1 displacement, SPA-assay
Text: In certain cases, a scintillation proximity assay (SPA assay) was used to determine IGF-1R affinity.

Kd [nM]	Binder
17000	SFYSSMACLLNGTPLPDRGPRERWRACLT [F379]
220	QFYGCLLKLSLGVPSFGWRRRCITA (N-terminal acetyl (Ac-)) [F419]
440	VQDDCRGRPCGDDADSFYEWFDQQAS [F342]
330	ESFYSCLESLVNGPAEKSRGQWDGCRE [F215]
47	VQDDCRGRPCGDADSFYEWFDQQAGYGSSSRRAPQT [F364]
120	SFYSCLASLVTGTPQACRGPWERGRGYLS [F377]
2200	SFYSCLESLVTGPAEKSEGQWEGCR (N-terminal acetyl (Ac-)) [F367]
110	SFYSCLESLVSGPAEKSHRRWEACR [F321]
220	RVSDCRGRPCGDAANFYEWFVQQGS [F266]
17000	EGSSMCHLLARAQIVDLTLCEMDVLED [F374]
370	EIQRDCQGRPCGDAANFYDWFVQQDSE [F268]
1600	GSGGYASRDESFYEWFERQLA [F276]
46	ESFYSCLASLVAGTPWPKGGSWERCREE [F230]
1500	TLNPRGPWEGSRGSMDDSFYRWFERQLE [F272]
64	SFYSCLESLVNAPAEKSRGQWDACRK [F298]
1400	TFYSGPVSLLTGTPRTNRSAWERGRGSLDDSFYDWFERQLSR [F274]
1100	ETGRECWGRPCGEADSFYDWFVQQGSE [F267]
2300	GSLDESFYDWFERQLGAVVGRDGGPITRDVGGDGRRGYNV [F286]
6800	EGRSMCHLLARAQIVELDLCERGVQVE [F372]
290	TFYSCLASLLDGTTQPHRGSWERCRGGLS [F378]
52	EGVDEVRAWLWCQISGLGCESGFRDNSFYEWFERQLGEKK [F189]
13000	EGSLDESFYDWFERQLGGYSWLRDVLMEKQAQLKREGSVGRQE (the two parts are conjugated by POX2 (Pox = 8-amino-3,6-dioxaoctanoic acid), 111 conjugated by POX) [F255]
1700	GSLDESFYDWFERQLGADTKSPRWGSGTREHQGARGGAPGR [F285]

Continued, binder first:

Binder	Kd [nM]
NFYGCLLDLSLGVPSFGWRRRCITA [F408]	16000
RGNVGGGSLDESFYEWFERQLGR [F271]	1700
VGRASGFPENFYDWFGRQLSLQSGEQRR (N-terminal acetyl (Ac-)) [F287]	7600
SFYSCLESLVAGPAEKSRGQWEGCR [F258]	220
SFYSCLESLVNGPAEKSRGQWDGCR [F249]	190
VGCRASGFPENFYDWFGRQLSLQSGCEQR [F290]	6700
SFYSCLESLVKRPTERSRGQWVGCR [F320]	110
F322 (the two parts are conjugated by (Pox)2 (Pox = 8-amino-3,6-dioxaoctanoic acid), 141 conjugated by POX) peptide: SFYSCLESLVNGPAEKSRGQWDGCRSFYSWPGSSQLTVKPEISPDLRFGGR	1200
SFYSCLESLVQGPAEKSRGQWEGCRK [F293]	89
SFYSCLESLVNAPAEKSRGQWEGCRK [F296]	57
SFYSCLESLVAGPAEKSRGQWEGCRK [F259]	84
SFYSCLESLVNGPAEKSRGQWDGCRK (also called RP33/F250) [F250]	78
TFYSCLASLLTGTPQPNRGPWERCRKK [F291]	69
QFYGCLLDLSLGVPSFGWKKKCITA [F392]	17000
EVDRDCQARPCGDAANFYDWFGQQGTE [F269]	890
SFYSCLESLVQGPAEQSQGQWEGCR [F338]	11000
SFYSCLESLVQGPAESSDGQWEGCR [F339]	13000
EGYSMCDLLARAQIVELDLCERGVQVE [F371]	2900
GSPQPERGLRERSRWLDQERAWLWCEISGRGCLS [F389]	8900
SFYSCLESLVTGPAKRSRGQWEGCRR (N-terminal acetyl (Ac-)) [F307]	46
RQWDCRGRPCGDAESFYEWFDQQRS [F264]	44
SFYSCLASLLTGTPDENRGGWERFRCLDQAGDGLWGEPSGRGLVS [F388]	2100
TGAPQPNRGPLDRCRGSLDECFYGWFERQLL [F273]	7600
SFYSCLASLLTATSQPNRGPGDRCERSGGGWLS [F394]	390
